1 molecule from US20260241048A1, “PSMA-TARGETED RADIOPHARMACEUTICALS AND DNA DAMAGE RESPONSE INHIBITOR COMBINATION THERAPY” (FUSION PHARMACEUTICALS INC., priority 2023, published 2026) can be followed below.

For this test, the system named is PC3-PSMA xenograft. As to the kind of experiment: In vivo combination study of ^225Ac-Compound I and elimusertib in PC3-PSMA tumor xenograft bearing mouse model. Particulars: single agent elimusertib monotherapy, oral gavage twice per day, 3 days on/4 days off, four weekly cycles, 5, 20, 40 mg/kg. How it is done: Groups of mice (n=5/group) were treated with ^225Ac-Compound I, administered as a single dose (intravenous), at a dose sub-optimal for monotherapeutic efficacy (1.23 MBq/kg or 1 μCi, based on 30 g mice). […] Tumor measurements were taken 2-3 times per week and used to calculate tumor volume. Study duration was 61 days after initial therapeutic administration.
Tumor growth was tracked over time and expressed as Relative Tumor Volume (RTV; tumor volume on day X divided by initial tumor volume on day 0) (FIGS. 4A-4C).

As to `C[C@@H]1COCCN1c1cc(-c2ccnn2C)c2ccnc(-c3ccn[nH]3)c2n1` [elimusertib], the “Tumor growth (Relative Tumor Volume)” value is given as “dose dependent efficacy”.
